Assay results: ChEMBL document CHEMBL1134562, “Fluorosulfonyl- and bis-(beta-chloroethyl)amino-phenylamino functionalized pyrazolo[4,3-e]1,2,4-triazolo[1,5-c]pyrimidine derivatives: irreversible antagonists at the human A3 adenosine receptor and molecular modeling studies” (J Med Chem, 2001)

The chains behind the UniProt entries cited, without tags or fusion partners. Where a name states a change or a piece, a line headed by the entry shows the natural chain unless it says otherwise.
UniProt P30542, whole entry, looked up: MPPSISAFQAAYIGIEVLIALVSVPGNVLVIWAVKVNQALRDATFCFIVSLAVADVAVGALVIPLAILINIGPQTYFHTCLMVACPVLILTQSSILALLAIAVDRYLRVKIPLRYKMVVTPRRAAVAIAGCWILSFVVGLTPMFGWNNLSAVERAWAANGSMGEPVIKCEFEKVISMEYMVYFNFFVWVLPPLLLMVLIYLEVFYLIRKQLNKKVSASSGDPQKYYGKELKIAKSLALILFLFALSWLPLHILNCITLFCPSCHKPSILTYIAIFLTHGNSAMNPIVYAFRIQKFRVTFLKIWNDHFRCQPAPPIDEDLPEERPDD
UniProt P0DMS8, whole entry, looked up: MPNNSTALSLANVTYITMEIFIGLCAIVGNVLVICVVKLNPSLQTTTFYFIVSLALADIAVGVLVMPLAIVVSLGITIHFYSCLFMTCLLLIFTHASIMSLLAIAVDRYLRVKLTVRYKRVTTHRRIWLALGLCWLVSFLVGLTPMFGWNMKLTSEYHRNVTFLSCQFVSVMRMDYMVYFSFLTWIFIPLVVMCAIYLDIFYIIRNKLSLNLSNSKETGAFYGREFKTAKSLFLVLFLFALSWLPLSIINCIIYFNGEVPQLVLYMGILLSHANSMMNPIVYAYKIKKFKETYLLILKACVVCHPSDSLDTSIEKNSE
UniProt P29275: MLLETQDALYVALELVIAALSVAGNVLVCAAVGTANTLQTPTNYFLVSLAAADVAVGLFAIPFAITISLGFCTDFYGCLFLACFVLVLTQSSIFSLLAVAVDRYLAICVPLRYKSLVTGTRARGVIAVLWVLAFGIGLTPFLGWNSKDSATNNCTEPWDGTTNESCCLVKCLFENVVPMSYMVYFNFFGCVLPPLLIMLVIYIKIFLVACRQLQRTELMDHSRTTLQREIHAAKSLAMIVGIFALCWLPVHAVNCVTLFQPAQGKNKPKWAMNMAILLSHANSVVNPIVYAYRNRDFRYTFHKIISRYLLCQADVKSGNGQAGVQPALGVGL

How the values were obtained:
Type in all cases: protein assay
[1] = biological target: Adenosine receptors; A1 & A3 (Homo sapiens) (UniProt P30542+P0DMS8); experiment: Relative binding affinity for human adenosine A1 and A3 receptors
[2] = biological target: Adenosine receptors; A2b & A3 (Homo sapiens) (UniProt P29275+P0DMS8); experiment: Relative binding of human adenosine A2b and A3 receptors
[3] = biological target: Adenosine receptors; A2a & A3 (Homo sapiens) (UniProt P0DMS8+P29274); experiment: Relative binding affinity for human adenosine A2A and A3 receptors

CCCn1cc2c(nc(NC(=O)Nc3ccc(OC)cc3)n3nc(-c4ccco4)nc23)n1
Ratio [1]: 1500 | Ratio [2]: 2570 | Ratio [3]: 175
